# scFv variants of Ab-14 (heavy chain) against a SARS-CoV-2 spike peptide

From the AlphaSeq antibody data of Engelhart et al. 2022 (doi:10.1038/s41597-022-01779-4), copy in the FLAb collection.

Binding partner: SARS-CoV-2 spike HR2 peptide, sequence PDVDLGDISGINAS.

Ab-14 is the parent antibody, in scFv form: VH, then a 15-residue (Gly4Ser)3 linker, then VL. The light chain is unchanged in all variants.
VH: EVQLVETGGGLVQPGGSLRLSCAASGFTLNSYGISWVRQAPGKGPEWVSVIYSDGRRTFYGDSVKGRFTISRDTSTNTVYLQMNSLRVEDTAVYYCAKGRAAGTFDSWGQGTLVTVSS
VL: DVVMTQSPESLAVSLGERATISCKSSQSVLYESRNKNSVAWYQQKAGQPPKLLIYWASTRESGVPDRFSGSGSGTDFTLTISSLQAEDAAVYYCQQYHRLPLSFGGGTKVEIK

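The parent was found by panning a naive human phage display library on the peptide. Variants in AAYL49 differ from the parent at up to three CDR positions; double and triple changes were sampled at random. AlphaSeq pools MATa yeast showing the antibodies with MATalpha yeast showing the peptide. After mating in shaken culture at 30 °C for 16 h, diploids were selected and their barcode pairs sequenced. Each replicate has its own calibration line, from reference interactions of the BCL2 family. Mating was done three times.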

Each variant is given by its three heavy chain CDRs, as the data file delimits them; those of the parent are GFTLNSYGIS, VIYSDGRRTFYGDSVK, GRAAGTFDS.
The read-out is the apparent dissociation constant on a log10 scale (nM): the lower, the stronger.
The mean shown is taken over the replicates in which the pair was detected.
"ND" means that the variant was in the library but no mating with the target was seen in that replicate; the authors take this as a sign of poor binding, and no number exists.
Parent in this assay: reference entry 0.65, copy in this library 4.11 (one replicate of three).
Three control strains display no target. For library AAYL49, 15% of the pairings with them gave a signal, with a median of 4.06 and one signal in twenty below 2.83, so weak values seen in few replicates may be background. The control count says in how many pairings with the empty strains this scFv gave a signal, with their mean in brackets.

CDR-H1 | CDR-H2 | CDR-H3 | log10 Kd (nM) by replicate | mean log10 Kd (nM) | signal with controls
PFTLNSYGIS | VIYSVGRRTFYQDSVK | GRAAGTFDS | ND / ND / ND | ND | 0 of 9
GGTLNSYGIS | HIYSDGRRTFYGDSAK | GRAAGTFDS | ND / ND / 3.37 | 3.37 | 1 of 9 (4.10)
GFTLNSYGIS | VIYSDRRETFYGDSGK | GRAAGTFDS | ND / ND / ND | ND | 1 of 9 (4.42)
GFTLNSYGIS | VIVRDGRRTFPGDSVK | GRAAGTFDS | ND / ND / ND | ND | 6 of 9 (4.22)
GFDLNSYGIS | VIYSDGRMTFYGDSVK | GRAAGTFDS | ND / ND / 4.53 | 4.53 | 2 of 9 (4.85)
GFYLNWYGIS | VIFSDGRRTFYGDSVK | GRAAGTFDS | ND / 1.88 / ND | 1.88 | 0 of 9
GFTLNSIGIP | VIYSDGRRTFYGDSVK | GRAAATFDS | ND / ND / ND | ND | 2 of 9 (2.76)
GFTLRSYGIS | VHYSDGRRTFYGDSVK | YRAAGTFDS | ND / ND / ND | ND | 0 of 9
GFTLNSEGIS | VIYSDGRRTFYGDSQK | GRAAGTFLS | 4.26 / 4.16 / 4.23 | 4.22 | 7 of 9 (4.05)
GFTLNSYGIS | VIYSDGRRTFYGLSWK | GRAAGMFDS | ND / ND / ND | ND | 0 of 9
GFTLNSYGIS | VIYSDGTRWFYGVSVK | GRAAGTFDS | ND / 4.34 / ND | 4.34 | 6 of 9 (3.97)
GFTLNSYGIS | VIYSDQRRTFYGVIVK | GRAAGTFDS | ND / ND / ND | ND | 1 of 9 (2.61)
GFTLNSLGIS | TIYSDGPRTFYGDSVK | GRAAGTFDS | ND / ND / ND | ND | 1 of 9 (2.31)
GFCLNSYGIS | VIYSDGRRTFYGDSYK | GRAAGTFDY | 3.37 / 3.95 / ND | 3.66 | 2 of 9 (4.02)
GFNLNSYGIS | VIFSDGRRTFYGDSVK | GRQAGTFDS | ND / 1.80 / ND | 1.80 | 0 of 9
GFTLNSYGIS | VIYSDGRRTHYGDSVK | YRAAGCFDS | ND / ND / ND | ND | 0 of 9
GFTLNSYGIS | VIYSDGRRTFYGDSVH | GRAAWTFDS | ND / ND / ND | ND | 1 of 9 (3.44)
EFTLNSYGIS | VIYSDGRRTFYGDTVK | GRAAGKFDS | 3.62 / ND / ND | 3.62 | 0 of 9
GFTVNSYGIS | IIYSDGRWTFYGDSVK | GRAAGTFDS | ND / ND / 2.72 | 2.72 | 0 of 9
GFQLWSYGIS | VIYSDGRRTFYGDSVK | GRAAGTFDS | 1.89 / 1.90 / 1.92 | 1.90 | 1 of 9 (5.27)
GFTLNSYGIS | VIYSTGRRTFYADSVK | GSAAGTFDS | 3.06 / 3.82 / 2.78 | 3.22 | 3 of 9 (3.78)
GFTLNSIPIS | VINSDGRRTFYGDSVK | GRAAGTFDS | ND / ND / ND | ND | 2 of 9 (3.78)
GFTGNSYGIS | SIYSDGRRTFYGDQVK | GRAAGTFDS | 4.16 / ND / ND | 4.16 | 1 of 9 (5.15)
GFTLNSYGIS | VIYSDSRRTFYGDSVK | GRAAGTFDS | ND / ND / ND | ND | 1 of 9 (4.39)
GFTLNSYYIS | VIYSDGRRTFYGDSVK | GRAAGTFAS | 2.99 / 3.09 / ND | 3.04 | 0 of 9
GFTLQSYGIS | VIYSDGRRTFYGDSVK | TWAAGTFDS | ND / ND / ND | ND | 0 of 9
GFTLKSYGIS | VIYSFGRRTFYGDSVK | GRAAGTFDS | 3.57 / ND / ND | 3.57 | 0 of 9
GGWLNSYGIS | VIYSDGRRTFYGDSAK | GRAAGTFDS | 1.19 / ND / 1.53 | 1.36 | 1 of 9 (3.52)
GFTVNSYGIS | VIYSDGRRTFYMDSVP | GRAAGTFDS | ND / ND / 4.10 | 4.10 | 2 of 9 (3.81)
GFTLHSYGIS | VIYVKGRRTFYGDSVK | GRAAGTFDS | ND / 4.01 / ND | 4.01 | 2 of 9 (3.86)
GFTHNLYGIS | VIYSDGRRTFYGDSVK | GRAAGTFDK | ND / ND / ND | ND | 0 of 9
GFTLNSYGIS | VIYSDGCRTFYGDHVK | GRAAGTFDS | 1.85 / 2.19 / 2.66 | 2.23 | 0 of 9
GFTLNSYGIS | VIYGDGRRTFYQDSVK | GRAAGTFGS | ND / ND / ND | ND | 0 of 9
GFTNNSYWIS | TIYSDGRRTFYGDSVK | GRAAGTFDS | ND / ND / 3.30 | 3.30 | 0 of 9
GFTLNSYGIS | VTYSQGRRTFYGDSVK | GRAAGTFMS | ND / ND / ND | ND | 0 of 9
GFTLNSYGIC | VIYSDWRRTFMGDSVK | GRAAGTFDS | ND / ND / ND | ND | 0 of 9
GVTLNSYGIS | VIYSDKRRTFYGDSVK | GRAAGTFMS | ND / ND / ND | ND | 0 of 9
GFTLNSYGIS | VIYSFGRRTFYLISVK | GRAAGTFDS | ND / ND / ND | ND | 1 of 9 (4.81)
GFTLNSYGPS | VIYSDGRRTFYGCDVK | GRAAGTFDS | ND / ND / ND | ND | 0 of 9
GFTLESYGIS | VIYSDGRRTSTGDSVK | GRAAGTFDS | 3.20 / 3.42 / 3.63 | 3.42 | 7 of 9 (4.42)
GFTSNSYGIS | VIYSDGCRTFYGDSVK | GRAAGIFDS | ND / ND / 5.56 | 5.56 | 1 of 9 (4.15)
GFTLNSYGIS | VIFIDGRRTFYGDPVK | GRAAGTFDS | ND / ND / ND | ND | 5 of 9 (4.51)
YFTLNSYGIS | VIYSDGRRTFYGDSVK | GRAAGTPQS | 3.77 / 5.06 / ND | 4.42 | 7 of 9 (3.99)
GFKLNSYGIS | VIYSDYRRTFYGDSVH | GRAAGTFDS | ND / ND / ND | ND | 0 of 9

The 5 strongest on average among those seen in every replicate, once more:

CDR-H1 | CDR-H2 | CDR-H3 | log10 Kd (nM) by replicate | mean log10 Kd (nM) | signal with controls
GFQLWSYGIS | VIYSDGRRTFYGDSVK | GRAAGTFDS | 1.89 / 1.90 / 1.92 | 1.90 | 1 of 9 (5.27)
GFTLNSYGIS | VIYSDGCRTFYGDHVK | GRAAGTFDS | 1.85 / 2.19 / 2.66 | 2.23 | 0 of 9
GFTLNSYGIS | VIYSTGRRTFYADSVK | GSAAGTFDS | 3.06 / 3.82 / 2.78 | 3.22 | 3 of 9 (3.78)
GFTLESYGIS | VIYSDGRRTSTGDSVK | GRAAGTFDS | 3.20 / 3.42 / 3.63 | 3.42 | 7 of 9 (4.42)
GFTLNSEGIS | VIYSDGRRTFYGDSQK | GRAAGTFLS | 4.26 / 4.16 / 4.23 | 4.22 | 7 of 9 (4.05)